From article PMC5997364, “OG716: Designing a fit-for-purpose lantibiotic for the treatment of Clostridium difficile infections” (PLoS ONE, 2018)

Details: 1.0 mg/mL in water
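Also: purity and concentration determined by HPLC on aqueous solutions kept in a stability chamber, with samples analyzed at day 0 and after incubation.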

For `C=C1NC(=O)[C@H](Cc2c[nH]c3ccccc23)NC(=O)[C@H](NC(=O)[C@H](CCCCN)NC(=O)[C@@H](N)CC(C)C)CSC[C@@H](C(=O)N[C@H]2C(=O)N3CCC[C@H]3C(=O)NCC(=O)N[C@H](C(=O)N[C@@H](C)C(=O)N[C@@H](CC(=O)O)C(=O)N/C(=C\C)C(=O)NCC(=O)N[C@@H]3CSC[C@@H]4NC(=O)[C@H](Cc5ccc(O)cc5)NC(=O)[C@@H](CS/C=C\NC4=O)NC(=O)[C@H](CC(N)=O)NC(=O)[C@H](Cc4ccccc4)NC3=O)CS[C@H]2C)NC(=O)[C@H](CC(C)C)NC1=O` [OG705], which “Forced degradation Δ Conc” value (2 Days at +50°C) is on record?
The value was -11.2%.

Which “Forced degradation Δ Purity” value (7 Days at +50°C) does the source give for `C=C1NC(=O)[C@H](Cc2c[nH]c3ccccc23)NC(=O)[C@H](NC(=O)[C@H](CCCCN)NC(=O)[C@@H](N)CC(C)C)CSC[C@@H](C(=O)N[C@H]2C(=O)N3CCC[C@H]3C(=O)NCC(=O)N[C@H](C(=O)N[C@@H](C)C(=O)N[C@@H](CC(N)=O)C(=O)N/C(=C\C)C(=O)NCC(=O)N[C@@H]3CSC[C@@H]4NC(=O)[C@H](Cc5ccc(O)cc5)NC(=O)[C@@H](CS/C=C\NC4=O)NC(=O)[C@H](CC(N)=O)NC(=O)[C@H](Cc4ccccc4)NC3=O)CS[C@H]2C)NC(=O)[C@H](CC(C)C)NC1=O` [OG712] here?
Its value is -18.06%.
